Assay results from US5569591A, “Analytical or monitoring apparatus and method” (priority 1990, dated 1996).

Chains of the proteins cited; added tags and fusions are not shown. Lines headed by an entry give the natural chain unless they say otherwise; changes in a name come on top.
UniProt P05030: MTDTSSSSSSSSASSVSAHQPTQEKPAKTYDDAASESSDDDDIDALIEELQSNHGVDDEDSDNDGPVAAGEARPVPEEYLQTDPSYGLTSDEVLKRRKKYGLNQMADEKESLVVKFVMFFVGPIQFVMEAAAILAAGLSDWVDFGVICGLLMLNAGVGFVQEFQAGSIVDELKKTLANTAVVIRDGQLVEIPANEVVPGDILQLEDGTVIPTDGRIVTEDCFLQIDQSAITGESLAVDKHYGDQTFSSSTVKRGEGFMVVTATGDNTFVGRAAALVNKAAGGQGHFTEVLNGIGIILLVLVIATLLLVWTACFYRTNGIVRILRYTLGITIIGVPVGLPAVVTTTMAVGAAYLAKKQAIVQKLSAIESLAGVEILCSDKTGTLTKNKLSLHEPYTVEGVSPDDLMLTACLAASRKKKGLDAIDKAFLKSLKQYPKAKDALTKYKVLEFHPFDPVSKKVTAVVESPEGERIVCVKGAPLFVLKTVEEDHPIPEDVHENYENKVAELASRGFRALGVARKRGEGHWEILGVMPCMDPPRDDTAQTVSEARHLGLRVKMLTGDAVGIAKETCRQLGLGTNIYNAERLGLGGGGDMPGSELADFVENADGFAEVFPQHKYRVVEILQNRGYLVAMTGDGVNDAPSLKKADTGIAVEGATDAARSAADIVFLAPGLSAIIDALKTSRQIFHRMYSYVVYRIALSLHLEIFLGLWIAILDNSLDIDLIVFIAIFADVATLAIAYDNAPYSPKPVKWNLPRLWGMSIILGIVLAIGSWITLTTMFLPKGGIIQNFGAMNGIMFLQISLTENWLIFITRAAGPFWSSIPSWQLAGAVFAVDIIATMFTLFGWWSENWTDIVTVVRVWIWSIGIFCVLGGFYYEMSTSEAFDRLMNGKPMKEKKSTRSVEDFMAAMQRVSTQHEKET

Molecular target: H+-ATPase in the plasma membrane of Saccharomyces cerevisiae (Saccharomyces cerevisiae, UniProt P05030)
Type: cell-based
Parameters: endogenous in cells; host or cells: intact S. cerevisiae cells in suspension
Conditions: resting cell suspension; FIG. 12; read-out: Ki app (magnitude of the 3rd harmonic, ordinate plotted using a dB scale)

In the case of sodium metavanadate, the Ki is reported as roughly 150 µM.
